Laboratory results reported in publication PMC10323144, “Garbage in, garbage out: how reliable training data improved a virtual screening approach against SARS-CoV-2 MPro” (Frontiers in Pharmacology, 2023).

Biological target: SARS-CoV-2 MPro (Severe acute respiratory syndrome coronavirus 2, UniProt P0DTD1)
Assay: MPro activity assay (de-quenching of Edans fluorescence on cleavage of a Dabcyl/Edans peptide)
Conditions: read-out: % activity MPro

**Q.** O=C(Cn1nnc2ccccc21)N(Cc1ccsc1)c1ccc(-c2ccccc2)cc1 [17a] was tested. Which activity at 10 µM did it give?
**A.** Its activity at 10 µM is 83.8 ± 1.8%.

**Q.** And the activity at 25 µM?
**A.** The activity at 25 µM was 88.9 ± 8.4%.
